# Apparent affinities of Ab-14 variants for a coronavirus HR2 peptide

Values reported by Li et al. 2023, doi:10.1038/s41467-023-39022-2 (FLAb copy).

The target is the same throughout: PDVDLGDISGINAS, from the HR2 region of SARS-CoV-2 spike.

Parent: Ab-14, a human scFv built as VH, the linker GGGGSGGGGSGGGGS, VL. Only the CDRs of the heavy chain vary.
VH: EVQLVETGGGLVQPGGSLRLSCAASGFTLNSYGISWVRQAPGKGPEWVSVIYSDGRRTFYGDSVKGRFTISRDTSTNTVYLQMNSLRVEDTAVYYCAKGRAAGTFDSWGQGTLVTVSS
VL: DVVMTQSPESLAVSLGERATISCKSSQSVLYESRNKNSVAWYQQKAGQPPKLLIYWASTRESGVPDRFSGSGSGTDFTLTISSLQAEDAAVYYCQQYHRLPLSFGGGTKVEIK

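Phage display of a naive human antibody library on the peptide gave the parent. Designed CDR sequences, proposed from the first random library and measured here. Several design methods are mixed in this list. In AlphaSeq, yeast of one mating type display the scFv and yeast of the other type display the target. Mating (16 h, 30 °C) was followed by selection of diploids and sequencing of their barcodes. Scores were corrected for input abundance and mapped to Kd with protein pairs of known affinity run in the same pool. Each pool was mated in six replicate cultures.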

Variants are written as CDR1, CDR2 and CDR3 of the heavy chain (limits as in the source). Parent: GFTLNSYGIS, VIYSDGRRTFYGDSVK, GRAAGTFDS. This list holds designs with at most six substitutions. Scale: log10 of Kd in nM, estimated from mating counts; low values are strong binders. An entry "nd" has no value in the source: the pair was not observed among the diploids in that replicate. This suggests poor binding but is not conclusive.

With GFTLNSYGIS / VIYSDGHRTFYDDSVK / GQTAGTFDS the result was 1.22, 0.04, 0.34, 1.16, 0.19, 0.31 (controls 1 of 18). With GFTLNSYGGS / VIYSDGRRTFYIDSVK / GDAAGTFDW the result was nd, nd, nd, nd, nd, nd (controls 0 of 18). For GFTLNSYGIS / VIYSDGRRTSYGDSVK / GRAAGTNDS, the assay gave 1.57, nd, nd, nd, nd, nd (controls 0 of 18). The variant GETLNSYGIS / VIYSDGRRTFYLDDVK / GRAAGTADS gave nd, nd, nd, nd, nd, nd (controls 0 of 18). The variant GFTLNSYGIS / VIYSDGRRTFYGDSVK / GEAAGTFDS showed nd, 1.29, 0.91, 1.81, 1.46, 2.53 (controls 0 of 18). With GFQLNEYGIS / VIYSDGRRTFYGDSVK / GRTAGTFDD the result was 1.28, 1.15, 1.01, 0.40, 1.32, 1.28 (controls 0 of 18). The variant GTTNNSYGGS / VIYSDGRRTFYGGSVK / GRGKGTFDS showed nd, nd, nd, nd, nd, nd (controls 0 of 18). The variant GFSLNEYGIS / VIYSDGRRTFYGDAVK / GRNAGTFDS showed 0.02, 0.08, -0.17, -0.03, -0.11, 0.09 (controls 1 of 18).

For LFDLNSYGIS / VIYSDGRRTAYGDSVK / GRTAGTFDS, the assay gave 1.21, 1.24, 0.73, 0.55, 1.09, 1.03 (controls 1 of 18). With GITLNSYGIS / VIYSDGRRTFYGDSVK / GRAAGMVST the result was nd, nd, nd, nd, nd, nd (controls 0 of 18). With GFTLNSYGIS / VIYSDGRRTFYKDSVK / GQTAGTFDS the result was 1.69, 1.14, 0.65, 0.92, 1.93, 1.08 (controls 0 of 18). For GFSLNSYGIS / VIYSDGRRTFYGDMVK / GKTAGTFDS, the assay gave 1.96, 1.87, nd, 1.07, 2.02, 2.63 (controls 0 of 18). For GFELNSYGIS / VIYSDGRRTFYDDSVK / GALAGTFDS, the assay gave 0.45, 0.63, 0.49, 0.62, 0.63, 0.43 (controls 0 of 18). The variant GFTLNSYGIS / VIYSDGRRTFYLDSVK / GRAQGTFVS gave nd, nd, nd, 2.00, nd, nd (controls 1 of 18). The variant GFDLNEYGIS / VIYADGRRTFYADSVK / GETAGTFDS gave -0.82, -0.79, -0.81, -0.78, -0.79, -0.29 (controls 0 of 18). The variant GFNLNSYGIS / VIYSDGRRTFYGDSVK / GNQAGTFDS gave 0.17, 0.10, -0.05, 0.11, 0.44, 0.24 (controls 0 of 18).

For GFTLNDYGIS / VIYSDGRRTFYSDSVK / GRQAGTFDS, the assay gave -0.68, -0.49, -0.12, 0.97, -0.12, 0.11 (controls 1 of 18). With HFNLNEYGIS / VIYEDGRRTFYTDSVK / GRFAGTFDS the result was nd, nd, nd, nd, nd, nd (controls 0 of 18). The variant GFTLNKYGIS / VIYSDGRRTFYGDSVK / GRWAGMFDS showed nd, nd, nd, nd, nd, nd (controls 0 of 18). With GFPLNDYGIS / VIYSDGRRTFYKDSVK / GRAAGTFDS the result was 1.51, 1.72, 1.58, 1.69, 1.90, 1.22 (controls 0 of 18). The variant GFTLNSYGIS / VIYSDGRRTFMGDSVK / NRAAGTFDP gave nd, nd, nd, nd, nd, nd (controls 0 of 18). With GFDLNSYGIS / VIYSDGRRTFYGDDVK / GRAAGHFIS the result was nd, nd, nd, nd, nd, nd (controls 0 of 18). The variant GFTLNEYGIS / VIYSDGRRTFYTDDVK / GEAAGTFES showed nd, 1.69, nd, 0.96, nd, 1.02 (controls 0 of 18). For GFTLESYGIS / VIYADGRRTFYGDSVK / GQAAGTFDT, the assay gave 0.27, 0.67, 0.29, 0.17, 0.36, 0.24 (controls 0 of 18).

The variant GHTLNSYSIS / VIYSDGRRTFYSDSVK / GRAGGTFDS showed nd, nd, nd, nd, nd, nd (controls 0 of 18). For GFELNSYGIS / VIYSDGRRTFYGDNVK / GKNAGTFDS, the assay gave 0.78, 0.91, 0.96, 0.77, 0.30, 1.76 (controls 0 of 18). The variant GFTLNSYGIS / VIYSDGRRTFYIDSVK / GNAAGTFDK showed nd, nd, nd, nd, nd, nd (controls 0 of 18). The variant GFTLDEYGIS / VIYADGRRTFYGDSVK / GRAAGTFDS showed -0.47, -0.13, -0.34, -0.41, -0.34, -0.19 (controls 0 of 18). The variant GFTLDSYGIS / VIYQDGRRTFYGDSVK / GRAAGTALS gave nd, nd, nd, nd, nd, nd (controls 0 of 18). For GFDLNSYGIS / VIYSDGRRTFYCDSVK / GKAAGTFDS, the assay gave nd, nd, 2.03, 2.77, nd, nd (controls 0 of 18). The variant GFDLNSYGIS / VIYSDGRRTFYIDSVK / GKAAGTFDM gave 0.06, -0.27, 0.38, 0.89, 0.19, 0.58 (controls 0 of 18).

The 4 strongest on average among those seen in every replicate, once more:

{"CDR-H1": "GFDLNEYGIS", "CDR-H2": "VIYADGRRTFYADSVK", "CDR-H3": "GETAGTFDS", "replicates, log10 nM": "-0.82, -0.79, -0.81, -0.78, -0.79, -0.29", "signal with controls": "0 of 18"}
{"CDR-H1": "GFTLDEYGIS", "CDR-H2": "VIYADGRRTFYGDSVK", "CDR-H3": "GRAAGTFDS", "replicates, log10 nM": "-0.47, -0.13, -0.34, -0.41, -0.34, -0.19", "signal with controls": "0 of 18"}
{"CDR-H1": "GFTLNDYGIS", "CDR-H2": "VIYSDGRRTFYSDSVK", "CDR-H3": "GRQAGTFDS", "replicates, log10 nM": "-0.68, -0.49, -0.12, 0.97, -0.12, 0.11", "signal with controls": "1 of 18"}
{"CDR-H1": "GFSLNEYGIS", "CDR-H2": "VIYSDGRRTFYGDAVK", "CDR-H3": "GRNAGTFDS", "replicates, log10 nM": "0.02, 0.08, -0.17, -0.03, -0.11, 0.09", "signal with controls": "1 of 18"}

Values of this round are not directly comparable with the first-round values of the same sequences. Of ten entries with the parent sequence, four were seen in most replicates (averages 0.34 to 2.37), three in one and three in none, so single entries are noisy. As a blank, each scFv also met three strains without target: over all heavy chain designs, 1% of these pairings were detected, typically at 2.08 and seldom below 0.84. The control count says in how many pairings with the empty strains this scFv gave a signal. The authors' rule: three or more of the six replicates give a measured affinity, fewer mean a poor binder.